This note sets out measurements from PMC7723054.

The list shows a part of the results.

T1: LIN28A (human?, UniProt Q9H9Z2 1-209)
T1 sequence: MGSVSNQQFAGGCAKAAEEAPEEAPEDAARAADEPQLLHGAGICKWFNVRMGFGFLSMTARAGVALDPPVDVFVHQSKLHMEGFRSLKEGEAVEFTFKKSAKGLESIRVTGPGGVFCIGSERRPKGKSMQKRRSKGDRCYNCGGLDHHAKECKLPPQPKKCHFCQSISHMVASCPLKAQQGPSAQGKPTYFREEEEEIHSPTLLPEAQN

T2: CIRBP (Homo sapiens, UniProt Q14011 1-172)
T2 sequence: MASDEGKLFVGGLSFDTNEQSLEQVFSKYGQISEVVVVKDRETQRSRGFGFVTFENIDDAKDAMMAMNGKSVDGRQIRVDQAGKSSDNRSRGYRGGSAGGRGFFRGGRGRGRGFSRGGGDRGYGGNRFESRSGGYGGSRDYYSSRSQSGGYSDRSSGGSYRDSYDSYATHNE

T3: DHX36 (Homo sapiens, UniProt Q9H2U1 1-1008)
T3 sequence: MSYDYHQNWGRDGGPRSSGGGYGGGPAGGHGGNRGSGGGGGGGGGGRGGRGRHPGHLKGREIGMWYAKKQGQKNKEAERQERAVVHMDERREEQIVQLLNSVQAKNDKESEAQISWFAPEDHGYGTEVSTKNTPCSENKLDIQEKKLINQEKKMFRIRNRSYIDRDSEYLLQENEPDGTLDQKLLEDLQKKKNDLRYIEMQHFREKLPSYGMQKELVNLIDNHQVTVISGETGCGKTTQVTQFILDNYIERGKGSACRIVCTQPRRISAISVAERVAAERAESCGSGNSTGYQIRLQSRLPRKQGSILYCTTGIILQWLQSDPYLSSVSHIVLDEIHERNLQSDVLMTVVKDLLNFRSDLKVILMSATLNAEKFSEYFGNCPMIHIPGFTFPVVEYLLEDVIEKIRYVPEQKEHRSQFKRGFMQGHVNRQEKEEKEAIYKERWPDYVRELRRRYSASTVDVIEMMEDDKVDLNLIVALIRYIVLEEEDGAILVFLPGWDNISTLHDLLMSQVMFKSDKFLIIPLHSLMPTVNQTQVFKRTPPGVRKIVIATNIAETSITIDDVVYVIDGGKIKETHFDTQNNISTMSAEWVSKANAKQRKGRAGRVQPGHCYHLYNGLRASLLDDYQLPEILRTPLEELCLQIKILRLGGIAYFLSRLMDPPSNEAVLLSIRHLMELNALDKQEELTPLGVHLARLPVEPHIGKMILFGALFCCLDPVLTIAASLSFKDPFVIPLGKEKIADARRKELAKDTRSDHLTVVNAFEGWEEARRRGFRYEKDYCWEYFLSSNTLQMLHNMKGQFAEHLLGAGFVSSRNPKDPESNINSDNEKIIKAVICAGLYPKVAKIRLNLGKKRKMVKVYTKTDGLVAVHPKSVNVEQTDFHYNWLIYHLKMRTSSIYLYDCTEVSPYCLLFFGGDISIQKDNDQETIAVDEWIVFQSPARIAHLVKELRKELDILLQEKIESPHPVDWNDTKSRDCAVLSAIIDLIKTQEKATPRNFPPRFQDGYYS

B1: hsa-mir-892c (structured_RNA)
RNA: GGGAACUUGAAAGUGACUACUCAAGCGCGGUGUACGAAGUUUCAGCAGUCACUUAGAUUACAUGUCACUGCUGAAGCUUCGUGCAC
B2: hsa-mir-548f-5 (structured_RNA)
RNA: GGGAAGUCUUAGGAUUGGGCGACACUAUGGUGUACGAAGUUUCAGCUUUUUCCAUUGUAAGUAAUGGGAAAAGCUGAAGCUUCGUGCAC
B3: hsa-mir-8064 (structured_RNA)
RNA: GGGACGAUACGAUAUCAGCGAUUAAGCAGGUGUACGAAGUUUCAGCGGACAUCCUUCCAUAGUAAAUAAGCGGUGCCGCUGAAGCUUCGUGCAC
B4: hsa-mir-6812 (structured_RNA)
RNA: GGGAAAGCAUUGUUAGACAAAGGACCCUGGUGUACGAAGUUUCAGCGCAGCCAGUCCUGUCUCACCGCGCUGAAGCUUCGUGCAC
B5: hsa-mir-5581 (structured_RNA)
RNA: GGGAGAAAGCAGGCCGGUGAGUAUACGAGGUGUACGAAGUUUCAGCGGAGACCCUAUACAUACCUGUUUCCGCUGAAGCUUCGUGCAC
B6: hsa-mir-6769a (structured_RNA)
RNA: GGGAAACCACUCGGCGAGCAAAGUUGUUGGUGUACGAAGUUUCAGCCCCUCAUAUGGCAGUUGGCGAGGGCCCAGUGAGGCUGAAGCUUCGUGCAC
B7: hsa-mir-4428 (structured_RNA)
RNA: GGGCCCCAAACGGAGCUAAUAGACGCUAGGUGUACGAAGUUUCAGCCUUACUGUACACGUGGCUGGCAAGGCUGAAGCUUCGUGCAC
B8: hsa-mir-25 (structured_RNA)
RNA: GGGAGCGAGACUGACGACUCUUCCUGAUGGUGUACGAAGUUUCAGCAUUGCUGGACGCUGCCCUGGGCAUGCUGAAGCUUCGUGCAC
B9: hsa-mir-3622a (structured_RNA)
RNA: GGGACUAUGCGUUUGACCCAACUAGGUAGGUGUACGAAGUUUCAGCGUGAGGCAGGGAGCUGAGCUCACGCUGAAGCUUCGUGCAC
B10: G4_(UGGGGU)6 (structured_RNA)
RNA: GGGAGAGGAAGCCUACAAAUAGCACGAAGGUGUACGAAGUUUCAGCUGGGGUUGGGGUUGGGGUUGGGGUUGGGGUUGGGGUGCUGAAGCUUCGUGCAC
B11: hsa-mir-517a (structured_RNA)
RNA: GGGAACGGAGAUAAGCGACGAAUAGCACGGUGUACGAAGUUUCAGCCUGUCUGUUGUAUAAAAGAAAAGAUCGGCUGAAGCUUCGUGCAC
B12: hsa-mir-383 (structured_RNA)
RNA: GGGAAGAUGUGAACCAGGUGUCGAUUACGGUGUACGAAGUUUCAGCUUGUGGCUUUGGGUGGAUAUUAAUCAGCCACAGGCUGAAGCUUCGUGCAC
B13: hsa-mir-105-1 (structured_RNA)
RNA: GGGAAUCUCAGAGCAUACUUGUGCGACGGGUGUACGAAGUUUCAGCCUGUGGUGGCUGCUCAUGCACCACGGGCUGAAGCUUCGUGCAC
B14: hsa-mir-6857 (structured_RNA)
RNA: GGGACAGGAUUAACCAGCAAAGCCGAUUGGUGUACGAAGUUUCAGCGCCAGUGUUCAAGGGCCCCUCCUCUAGUACUCCCUGUUUGUGUUCUGCCACUGAGCUGAAGCUUCGUGCAC
B15: hsa-mir-6754 (structured_RNA)
RNA: GGGAGGAUUGGAGCUCGUACCCUCACUCGGUGUACGAAGUUUCAGCUGGAGGAGUCUGGUGGCCUGUUCUCUUGCUGAAGCUUCGUGCAC
B16: hsa-mir-548av (structured_RNA)
RNA: GGGAACGAAGAAGUACGCAAUAAAGCCAGGUGUACGAAGUUUCAGCAUUUGCCAUCACCUUUACCUUUAAUGGCAAAAGCUGAAGCUUCGUGCAC
B17: hsa-mir-141 (structured_RNA)
RNA: GGGACACUCGGAGAGAACCCUCAGGGAUGGUGUACGAAGUUUCAGCGUUGGAUGGUCUAAUUGUGAAGCUCCUAACGCUGAAGCUUCGUGCAC
B18: hsa-mir-608 (structured_RNA)
RNA: GGGAACCACUCCUGAAACCCGGGACAUAGGUGUACGAAGUUUCAGCCCGUUUAAAAAGGCAUCUCCAAGGCUGAAGCUUCGUGCAC
B19: hsa-mir-6739 (structured_RNA)
RNA: GGGAACAAGACGCACUGGUAGCCCACAAGGUGUACGAAGUUUCAGCCAAGUAAAAGGAAUUUUCAUUUUCCAGCCCCUAAUUGGCUGAAGCUUCGUGCAC
B20: hsa-mir-1273g (structured_RNA)
RNA: GGGAAAAGGUGUCACGAGAGAUAUGUUUGGUGUACGAAGUUUCAGCUAAGUUGUGAUCAUACCAGCUGAAGCUUCGUGCAC
B21: hsa-mir-5700 (structured_RNA)
RNA: GGGACCGUCGCCUCCGAUCUCUAUAUGGGGUGUACGAAGUUUCAGCAAGGCCCUUGGGCACCCCAGGCCUUGCUGAAGCUUCGUGCAC
B22: hsa-mir-5739 (structured_RNA)
RNA: GGGACUGGGCCGUAAAACACCUGAGUAUGGUGUACGAAGUUUCAGCCCAAGGUUGUGCUUUUAGGAAAUGUUGGCUGUCCUGCGGGCUGAAGCUUCGUGCAC
B23: hsa-mir-4752 (structured_RNA)
RNA: GGGAAAAGUGAUGACCGACUGUUACUUGGGUGUACGAAGUUUCAGCUGCUUCCACAUAGCAGCAGCUGAAGCUUCGUGCAC

For one experiment, the target named is U1A (Homo sapiens, UniProt P09012). The experiment can be described thus: FOREST: bead pull-down of RNA structure library v1, barcode microarray; U1A/LIN28A: 20 mM HEPES pH 7.5, 80 mM KCl, 20 mM NaCl, 10% glycerol, 2 mM DTT, 0.1 ug/uL BSA, 4 C; BG4/CIRBP/DHX36: 10 mM Tris-HCl pH 7.5, 100 mM KCl (or LiCl),; high values mean tight binding.
With B1, the binding signal is 0.369 z-score.

B2 yielded a binding signal of 0.379 z-score.

Regarding B3, the binding signal was 0.356 z-score.

B4: the binding signal was determined as 0.382 z-score.

In turn, B5 displayed a binding signal of 0.357 z-score.

Consider B6, for which the binding signal was found to be 0.379 z-score.

In the case of B7, the binding signal amounted to 0.366 z-score.

B8 returned a binding signal of 0.378 z-score.

Consider B9, for which the binding signal is 0.359 z-score.

B10 displayed a binding signal of 1.92 z-score.

With B11, the binding signal worked out at 0.381 z-score.

B12 came in with a binding signal of 0.362 z-score.

Take B13: the binding signal came to 0.371 z-score.

On to B14, for which the binding signal was found to be 1.98 z-score.

Regarding B15, the binding signal was found to be 0.377 z-score.

With B16, the binding signal was 0.366 z-score.

Regarding B17, the binding signal was 0.372 z-score.

For the molecule B18, the binding signal came to 0.358 z-score.

Take B19: the binding signal turned out to be 0.382 z-score.

In the case of B20, the binding signal was 0.356 z-score.

B21 showed a binding signal of 0.375 z-score.

For the molecule B22, the binding signal turned out to be 0.377 z-score.

B23 registered a binding signal of 0.362 z-score.

The next experiment has as its target T1, LIN28A. The experiment is described as above.
For B1, the binding signal is 0.882 z-score.

For B2, the binding signal was -1.24 z-score.

For the molecule B3, the binding signal is -0.391 z-score.

For the molecule B4, the binding signal was -0.295 z-score.

Turning to B5, the binding signal was -0.285 z-score.

With B6, the binding signal was determined as 0.547 z-score.

For B7, the binding signal was -1.45 z-score.

Turning to B8, the binding signal is -0.121 z-score.

With B9, the binding signal is -0.698 z-score.

Regarding B10, the binding signal was 1.4 z-score.

For B11, the binding signal was 2.02 z-score.

Turning to B12, the binding signal is 1.59 z-score.

Turning to B13, the binding signal worked out at 0.142 z-score.

In the case of B14, the binding signal is 0.779 z-score.

Regarding B15, the binding signal was -1.02 z-score.

As to B16, the binding signal was -0.0998 z-score.

For B17, the binding signal was found to be 0.077 z-score.

B18 registered a binding signal of 1.33 z-score.

Regarding B19, the binding signal was -0.226 z-score.

The molecule B20 gave a binding signal of 1.52 z-score.

In the case of B21, the binding signal is -1.6 z-score.

As to B22, the binding signal turned out to be 0.472 z-score.

In the case of B23, the binding signal was -0.749 z-score.

For another experiment, the target named is T2, CIRBP. Described as above.
B1 came in with a binding signal of 0.938 z-score.

For B2, the binding signal is -0.204 z-score.

The molecule B3 displayed a binding signal of 0.217 z-score.

Molecule B4 displayed a binding signal of 0.19 z-score.

As to B5, the binding signal was -0.628 z-score.

As to B6, the binding signal stood at 0.109 z-score.

Consider B7, for which the binding signal was -0.813 z-score.

In the case of B8, the binding signal was -0.518 z-score.

On to B9, for which the binding signal is -0.735 z-score.

Take B10: the binding signal was found to be 4.5 z-score.

For the molecule B11, the binding signal is 0.807 z-score.

The molecule B12 returned a binding signal of 1.71 z-score.

As for B13, the binding signal is -0.379 z-score.

As for B14, the binding signal is -1.16 z-score.

For the molecule B15, the binding signal is -1.17 z-score.

Consider B16, for which the binding signal was found to be 1.3 z-score.

The molecule B17 came in with a binding signal of 0.209 z-score.

For the molecule B18, the binding signal came out at 1.46 z-score.

The molecule B19 gave a binding signal of 0.863 z-score.

Take B20: the binding signal was determined as 0.824 z-score.

For the molecule B21, the binding signal was -1.02 z-score.

For the molecule B22, the binding signal is -0.841 z-score.

In the case of B23, the binding signal came out at 0.5 z-score.

The target in a further experiment is T3, DHX36. The experiment is described as above.
Turning to B1, the binding signal is -0.208 z-score.

For B2, the binding signal came out at 0.0862 z-score.

Turning to B3, the binding signal was -0.249 z-score.

With B4, the binding signal was -0.313 z-score.

Consider B5, for which the binding signal is -0.456 z-score.

Turning to B6, the binding signal is -0.268 z-score.

Turning to B7, the binding signal is -1.26 z-score.

As to B8, the binding signal was -0.152 z-score.

For the molecule B9, the binding signal stood at 0.298 z-score.

For the molecule B10, the binding signal worked out at 7.76 z-score.

B11 displayed a binding signal of 0.674 z-score.

As to B12, the binding signal came out at 0.837 z-score.

On to B13, for which the binding signal was -0.838 z-score.

B14 came in with a binding signal of 0.533 z-score.

In turn, B15 gave a binding signal of 0.156 z-score.

In turn, B16 displayed a binding signal of 0.339 z-score.

As for B17, the binding signal came out at 0.333 z-score.

For the molecule B18, the binding signal is -0.192 z-score.

With B19, the binding signal is -0.0903 z-score.

B20: the binding signal is -0.327 z-score.

Molecule B21 showed a binding signal of 0.212 z-score.

As to B22, the binding signal was -0.0239 z-score.

In turn, B23 registered a binding signal of 0.402 z-score.
